Experimental data: article PMC11537224 (ACS Infectious Diseases, 2024)
Where two headings read alike, the source gives them in different places.

By UniProt entry, the sequences of proteins in these tests, tags left out. Where a name states a change or a piece, a line headed by the entry shows the natural chain unless it says otherwise.
UniProt Q27783: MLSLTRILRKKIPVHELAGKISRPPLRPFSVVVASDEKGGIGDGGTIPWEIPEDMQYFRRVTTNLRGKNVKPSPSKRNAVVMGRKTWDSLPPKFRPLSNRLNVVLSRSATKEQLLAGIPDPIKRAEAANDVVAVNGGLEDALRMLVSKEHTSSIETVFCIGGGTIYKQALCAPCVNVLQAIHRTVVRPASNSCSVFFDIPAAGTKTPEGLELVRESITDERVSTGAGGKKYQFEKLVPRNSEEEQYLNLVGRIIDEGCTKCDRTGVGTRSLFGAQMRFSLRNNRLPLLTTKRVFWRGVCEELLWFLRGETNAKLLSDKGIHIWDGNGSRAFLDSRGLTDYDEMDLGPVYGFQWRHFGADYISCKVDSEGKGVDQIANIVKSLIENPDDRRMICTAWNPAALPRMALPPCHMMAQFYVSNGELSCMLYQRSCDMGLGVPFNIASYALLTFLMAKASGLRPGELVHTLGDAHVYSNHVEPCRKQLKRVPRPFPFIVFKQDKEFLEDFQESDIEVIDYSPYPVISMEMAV

Experiments:
in vitro = conditions: human, THP-1-derived macrophages (PMA-differentiated)
TbDHFR [1] = target: T1, TbDHFR (Trypanosoma brucei brucei, UniProt Q27783); conditions: read-out: TbDHFR Ki; cited from earlier work
TbDHFR [2] = target: T1, TbDHFR; conditions: for selectivity KiTbPTR1/KiTbDHFR: ratio of Ki TbPTR1 vs TbDHFR; for species selectivity KihDHFR/KiTbDHFR: ratio of Ki hDHFR vs TbDHFR
TbTS = TbTS (Trypanosoma brucei brucei, UniProt Q27783); conditions: ratio of Ki hTS vs TbTS
[3] = tested on: T. brucei bloodstream forms; test: Activity toward T. brucei bloodstream forms; conditions: for SI CC50/EC50 folate deficiency: THP-1 CC50 / T. brucei EC50, folate deficiency medium
TbDHFR [4] = target: T1, TbDHFR; test: biochemical
TbPTR1 = target: T2, TbPTR1 (Trypanosoma brucei brucei, UniProt O76290); test: TbPTR1 inhibition assay
T2 sequence (O76290 1-268): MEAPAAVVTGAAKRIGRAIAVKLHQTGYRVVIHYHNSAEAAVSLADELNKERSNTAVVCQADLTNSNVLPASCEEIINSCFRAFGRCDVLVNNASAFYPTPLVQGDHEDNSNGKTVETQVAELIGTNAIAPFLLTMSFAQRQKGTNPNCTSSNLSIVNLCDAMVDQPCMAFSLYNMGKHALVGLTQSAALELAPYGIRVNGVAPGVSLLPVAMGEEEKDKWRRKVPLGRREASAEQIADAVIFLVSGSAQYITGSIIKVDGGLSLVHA

Ki (TbDHFR [4]) [µM] | Ki (TbPTR1) [µM] | SMILES | CC50 at 72 h (in vitro) [µM] | Ki (TbDHFR [1]) [µM] | selectivity KiTbPTR1/KiTbDHFR (TbDHFR [2]) | species selectivity KihDHFR/KiTbDHFR (TbDHFR [2]) | species selectivity KihTS/KiTbTS (TbTS) | SI CC50/EC50 folate deficiency [3] | SI CC50/EC50 ([3]; THP-1 CC50 / T. brucei EC50, complete medium)
 |  | CC1(C)N=C(N)N=C(N)N1c1ccc(Cl)cc1 [Cyc, cycloguanil, reference compound] | 221 | 0.256 |  |  |  |  | 
 |  | N=C(N)Nc1nc2cc(Cl)cc(Cl)c2[nH]1 [2d, 4,6-Dichloro-2-guanidinobenzimidazole] | > 100 |  | 44 | 39 | >25 | 16.8 | 
 |  | N=C(N)Nc1nc2cc(Cl)c(Cl)cc2[nH]1 [2c, 5,6-Dichloro-2-guanidinobenzimidazole] | 95.3 |  | 4.9 | 2.3 | >9.9 | 14.6 | 12.2
 |  | N=C(N)Nc1nc2ccccc2[nH]1 [2a, 2-Guanidinobenzimidazole] | > 100 |  | 459 | 76 | >21 |  | 
0.038 | 0.016 | CCc1nc(N)nc(N)c1-c1ccc(Cl)cc1 [Pyr, pyrimethamine, reference compound] | 105 |  |  |  |  |  | 
 |  | Cc1cc2nc(NC(=N)N)[nH]c2cc1C [2g, 5,6-Dimethyl-2-guanidinobenzimidazole] | > 100 |  | 6000 | 394 | >27 | 7.2 | 
